Legend:
[1] = Light scatter of beta interferons, Pramlintide and calcitonin with and without dodecyl maltoside; details: 37° C., 150 RPM
[2] = agitation at 150 RPM

**Q.** With Pramlintide® as the substance, how does the “Stabilization in the presence of 0.2% Dodecyl maltoside” value ([1]; light scatter) read?
**A.** approx. 5 fold

**Q.** With PTH 1-34 as the substance, how does the “Stability against aggregation at 37° C. compared with 40° C. (FIG. 12)” value [2] read?
**A.** significantly more stable

**Q.** Which “Stabilization by 0.2% Dodecyl maltoside, in words” value ([1]; 38 day test period, light scatter at 500 nm) does the source give for Calcitonin here?
**A.** stable either in the presence or absence of excipient
